The test has as its target T1, thrombin receptor (Homo sapiens, UniProt P25116).
T1 construct: In this assay, washed human platelets are prepared by the method of Baenzinger; endogenous in cells; host or cells: washed human platelets
T1 sequence (P25116 22-425): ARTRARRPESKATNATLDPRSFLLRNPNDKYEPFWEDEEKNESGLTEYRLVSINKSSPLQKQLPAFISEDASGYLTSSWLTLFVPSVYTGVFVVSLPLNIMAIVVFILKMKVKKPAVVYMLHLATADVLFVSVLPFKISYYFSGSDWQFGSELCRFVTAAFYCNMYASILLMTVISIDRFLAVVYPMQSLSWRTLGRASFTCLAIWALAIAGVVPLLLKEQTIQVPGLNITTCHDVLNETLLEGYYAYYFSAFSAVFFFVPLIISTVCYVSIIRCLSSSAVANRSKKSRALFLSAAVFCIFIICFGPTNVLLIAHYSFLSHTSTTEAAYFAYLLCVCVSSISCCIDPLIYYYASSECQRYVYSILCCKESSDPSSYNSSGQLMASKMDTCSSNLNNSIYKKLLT
As to the kind of experiment: Platelet activation/aggregation assays in the presence of thrombin, antagonist peptides. The test is classed as cell-based. The note with it: platelets, read-out: IC50 (50% inhibition of activation or aggregation). The method, then:
Platelet Aggregation: In this assay, washed human platelets are prepared by the method of Baenzinger, M. G., Meth Enzymol (1974) 31:149–155, or as described by Charo, I. F., et al., J Clin Invest (1977) 63:866–873. To induce aggregation, approximately 1–20 nM thrombin or EC50 of an alternate agonist is used to stimulate aggregation in control reactions; the results are followed by lumiaggregometry. Candidate agonists at various concentrations may be used in place of thrombin to stimulate aggregation. Candidate inhibitors are added to the reaction mixture in addition to the thrombin in order to assess their ability to prevent aggregation.
Washed platelets are suspended in modified Tyrode's buffer, pH 7.4 with 2 mM magnesium and 1 mM calcium at a concentration of 10^8 platelets/ml. […]
Platelet Aggregation Assay Using Microtiter Plates: Thrombin- or agonist-mediated platelet aggregation as measured with washed platelets in 96-well microtiter plates was performed as described (Fratantoni, J. C. et al., Am J Clin Pathol (1990) 94:613–617). The ability of hybridoma supernatants, purified MoAbs or peptide antagonists to block the thrombin receptor was assessed in this assay with various concentrations of antibodies or antagonists. […]

In the case of `CSCCC(=O)N[C@@H](Cc1ccccc1)C(=O)N[C@@H](CC(C)C)C(=O)N[C@@H](CC(C)C)C(=O)N[C@@H](CCCNC(=N)N)C(N)=O` [[SMe-Mpr]-FLLR-NH2], the IC50 fell in the range of 500 to 1000 µM.
